The results in this text go back to ChEMBL document CHEMBL4428091, “Design and optimization of (3-aryl-1H-indazol-6-yl)spiro[cyclopropane-1,3'-indolin]-2'-ones as potent PLK4 inhibitors with oral antitumor efficacy” (Bioorg Med Chem Lett, 2016).

This test concerns the target T1, Serine/threonine-protein kinase PLK4 (Homo sapiens, UniProt O00444).
T1 sequence (O00444 whole entry): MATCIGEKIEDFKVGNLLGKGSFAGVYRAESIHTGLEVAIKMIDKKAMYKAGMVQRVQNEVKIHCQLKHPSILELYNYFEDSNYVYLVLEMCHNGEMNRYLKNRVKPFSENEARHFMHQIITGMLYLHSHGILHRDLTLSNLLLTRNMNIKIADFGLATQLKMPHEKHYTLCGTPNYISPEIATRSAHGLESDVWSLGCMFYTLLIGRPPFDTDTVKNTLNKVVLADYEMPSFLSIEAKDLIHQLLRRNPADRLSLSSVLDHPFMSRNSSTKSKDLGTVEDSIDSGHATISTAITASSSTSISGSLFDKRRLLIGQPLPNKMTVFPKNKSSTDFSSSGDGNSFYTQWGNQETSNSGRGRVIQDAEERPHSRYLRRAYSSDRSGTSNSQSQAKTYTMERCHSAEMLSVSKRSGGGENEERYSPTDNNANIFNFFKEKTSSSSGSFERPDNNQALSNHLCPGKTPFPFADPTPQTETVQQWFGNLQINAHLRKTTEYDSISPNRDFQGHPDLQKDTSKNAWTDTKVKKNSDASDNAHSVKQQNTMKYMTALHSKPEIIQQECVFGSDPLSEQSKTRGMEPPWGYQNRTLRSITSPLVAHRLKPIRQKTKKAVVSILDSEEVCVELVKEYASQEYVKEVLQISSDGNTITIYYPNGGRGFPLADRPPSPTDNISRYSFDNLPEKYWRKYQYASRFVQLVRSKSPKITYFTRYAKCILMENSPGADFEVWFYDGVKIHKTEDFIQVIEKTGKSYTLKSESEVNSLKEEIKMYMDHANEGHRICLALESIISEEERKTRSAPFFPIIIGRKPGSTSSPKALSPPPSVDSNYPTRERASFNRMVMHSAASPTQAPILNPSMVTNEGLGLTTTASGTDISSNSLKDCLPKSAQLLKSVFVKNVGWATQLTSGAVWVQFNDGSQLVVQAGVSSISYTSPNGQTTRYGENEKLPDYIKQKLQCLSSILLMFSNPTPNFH
The experiment in a line: Inhibition of PLK4 (unknown origin).

One may read the IC50 as the concentration needed to halve the response being measured. Read a low IC50 as greater potency in that assay. On to `COc1ccc2c(c1)[C@]1(C[C@H]1c1ccc3c(-c4ccc(N5CCC(O)CC5)nc4)n[nH]c3c1)C(=O)N2` (racemic), for which the IC50 is 1.7 nM. Under `COc1ccc2c(c1)[C@]1(C[C@H]1c1ccc3c(-c4ccc(N5CCOCC5)nc4)n[nH]c3c1)C(=O)N2` (racemic) stands 4.6 nM.
